Source: US20040037843A1
Like-named read-outs stand apart in the source and are kept apart here.

What was measured:
Details in all cases: remark: other sources report otherwise
[1] = target: HLA-A*0206 (human)
[2] = target: HLA-A*0203 (human)
[3] = target: HLA-A*0201 (human)
[4] = target: HLA-A*0202 (human)
[5] = target: HLA-A*0201 (human); assay: competition with 125I-labeled probe peptide for purified HLA, gel filtration
[6] = target: HLA-A*0202 (human); assay: as above

| IC50 [1] [µM] | IC50 [2] [µM] | IC50 [3] [µM] | IC50 [4] [µM] | IC50 [5] [µM] | IC50 [6] [µM] | Binder |
| --- | --- | --- | --- | --- | --- | --- |
| 0.034 | 0.031 | 0.053 | 0.027 | – | – | KVTEFMLCV [peptide 1418.21, HuK2.191.V9] |
| – | – | – | – | 0.098 | 0.036 | QLMFLERAFI [Peptide 1126.16] |
